{
  "sequences": {"note": "Protein sequences, listed by entry. Tags and fused reporters are not part of them.", "UniProt P53610, whole entry": "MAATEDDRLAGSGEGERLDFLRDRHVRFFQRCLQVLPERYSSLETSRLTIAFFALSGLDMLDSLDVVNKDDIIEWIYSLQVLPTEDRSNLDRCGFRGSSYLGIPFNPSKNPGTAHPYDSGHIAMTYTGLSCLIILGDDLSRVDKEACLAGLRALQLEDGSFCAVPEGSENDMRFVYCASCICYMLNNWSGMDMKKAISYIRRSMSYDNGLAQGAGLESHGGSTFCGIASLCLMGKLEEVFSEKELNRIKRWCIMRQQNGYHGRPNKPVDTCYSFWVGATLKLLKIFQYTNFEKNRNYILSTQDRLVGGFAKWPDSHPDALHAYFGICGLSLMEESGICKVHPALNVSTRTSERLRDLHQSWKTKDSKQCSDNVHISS", "UniProt Q08602, whole entry": "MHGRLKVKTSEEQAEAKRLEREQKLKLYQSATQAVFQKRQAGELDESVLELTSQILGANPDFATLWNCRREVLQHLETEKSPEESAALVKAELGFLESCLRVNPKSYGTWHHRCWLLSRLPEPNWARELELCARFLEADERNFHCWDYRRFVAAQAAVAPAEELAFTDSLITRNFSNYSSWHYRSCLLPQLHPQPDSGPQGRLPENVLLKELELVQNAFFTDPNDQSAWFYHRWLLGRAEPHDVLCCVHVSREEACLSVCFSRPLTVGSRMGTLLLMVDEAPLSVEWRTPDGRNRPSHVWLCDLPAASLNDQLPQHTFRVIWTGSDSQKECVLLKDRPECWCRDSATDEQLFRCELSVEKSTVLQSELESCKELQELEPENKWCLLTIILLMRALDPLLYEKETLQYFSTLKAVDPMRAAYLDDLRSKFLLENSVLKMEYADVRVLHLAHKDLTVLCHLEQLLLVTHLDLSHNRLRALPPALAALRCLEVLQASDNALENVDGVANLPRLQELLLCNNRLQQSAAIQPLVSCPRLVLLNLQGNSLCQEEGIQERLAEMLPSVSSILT", "UniProt Q08603, whole entry": "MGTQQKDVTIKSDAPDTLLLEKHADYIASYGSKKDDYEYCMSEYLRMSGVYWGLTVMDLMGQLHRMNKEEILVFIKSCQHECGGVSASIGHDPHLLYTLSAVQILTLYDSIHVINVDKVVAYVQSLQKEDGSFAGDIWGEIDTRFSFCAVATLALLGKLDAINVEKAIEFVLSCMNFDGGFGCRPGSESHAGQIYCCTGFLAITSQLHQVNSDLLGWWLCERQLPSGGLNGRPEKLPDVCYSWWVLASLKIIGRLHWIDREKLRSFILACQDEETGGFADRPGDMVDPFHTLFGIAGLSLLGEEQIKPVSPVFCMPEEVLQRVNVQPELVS"},
  "source": "patent US8815935B2",
  "about": "“Inhibitors of protein prenyltransferases” (The Regents of the University of California, priority 2008, dated 2014)",
  "key": {"GGTase-I": {"target": "GGTase-I (Rattus norvegicus, UniProt P53610+Q04631)", "assay": "In vitro GGTase-I enzyme assay (IC50, kinetics)", "conditions": "read-out: In vitro (enzyme assay) IC50, GGTase I; Tables 5, 14", "protocol": "(§1) The GGTase-I assay was carried out using RhoA as a substrate protein, GGTase-I (JENA Bioscience) and [3H]geranylgeranyl pyrophosphate. Incubation was for 30 min at 37° C. GGTase-II (or RabGGTase) assay was carried out using YPTI as a substrate protein, GGTase-II (Calbiochem, San Diego, Calif.) plus REP1 (Calbiochem) and [3H]geranylgeranyl pyrophosphate. Incubation was for 30 min at 37° C. FIGS. 20D-20F show the three dimensional structure of GGTase I (D), FTsse (E) and GGTase II (F) which can be obtained from X-ray diffraction studies of protein crystals.\nGGTase-I and FTase activities were determined by following the incorporation of radiolabeled isoprenoid [^3H]-geranylgeranyl or [^3H]-farnesyl into substrate proteins. FTase or GGTase-I (50 nM) were used to initiate reactions containing 0.4 μM of [^3H]-FPP or 0.5 μM of [^3H]-GGPP and 2 μM of MBP-tagged substrates (K-Ras4B for FTase; RhoA for GGTase-I) in 20 μl of buffer {50 mM Tris-HCl (pH 7.5), 10 mM MgCl2, […] and 5 mM DTT}. Inhibitors were added at the indicated concentrations. The final DMSO concentration was 2.5% for all samples.\nReactions were carried out for 10 min at 30° C. The reaction mixture was spotted onto a filter paper, treated with 10% trichloroacetic acid (TCA) followed by ethanol and acetone washing. The filter was counted using a scintillation counter. […]"}, "FTase": {"target": "FTase (Rattus norvegicus, UniProt Q02293+Q04631)", "assay": "In vitro FTase assay (K-Ras4B substrate, [3H]FPP)", "conditions": "P3-D9, P3-E5: concentration increased to 100 (unit not given)", "text": "To further characterize the pilot library, inhibitors of protein farnesyltransferase were identified. This was accomplished by using K-Ras4B as a substrate protein, tritiated farnesylpyrophosphate ([^3H]FPP) and protein farnesyltransferase. See Finegold, A. A., Johnson, D. I., Farnsworth, C. C., Gelb, M. H., Judd, S. R., Glomset, J. A. and Tamanoi, F. (1991) Protein geranylgeranyltransferase of Saccharomyces cerevisiae is specific for Cys-Xaa-Xaa-Leu motif and requires the CDC43 gene product but not the DPR1 gene product. Proc. Natl. Acad. Sci. USA 88, 4448-4452. […] On the other hand, the structure of the compounds P1-F11, P2-B7 and P2-E9 resemble those of GGTIs. The FTI P1-F11 resembles the GGTI P1-F10, while the FTI P2-B7 resembles the GGTI P2-C10. The FTI P2-E9 is similar to the GGTI P2-G3. Similarity of some GGTI and FTI compounds may point to common structural features between the two closely related enzymes. As described before, FTase and GGTase I have similar three-dimensional structures and a shared alpha subunit. […]\nGGTase-I and FTase activities were determined by following the incorporation of radiolabeled isoprenoid [^3H]-geranylgeranyl or [^3H]-farnesyl into substrate proteins. […]\nReactions were carried out for 10 min at 30° C. […] The filter was counted using a scintillation counter. […]"}, "[1]": {"test_system": "Rab5b geranylgeranylation in NIH3T3 cells", "assay": "Rab5b immunoblot and subcellular fractionation in NIH3T3 cells", "conditions": "48 hours", "protocol": "The inhibition of Rab geranylgeranylation in cells (FIG. 43) was examined according to (29). Briefly, whole cell lysates were subjected to 15% SDS-PAGE containing 4M urea followed by immunoblotting with the antibody against Rab5b (Santa Cruz: sc-598) or actin. Subcellular fractionations (FIG. 44) were performed as described by Gomes et al. (30). Briefly, cells were treated with P49-F6 for 48 hours. After osmotic lysis, cell debris were removed by centrifugation at 500×g for 10 min, and the supernatant was subjected to ultracentrifugation at 100,000×g for 60 min. The supernatant of ultracentrifugation was collected as a soluble fraction. The pellet was collected as a membrane fraction. These fractions were subjected to electrophoresis on 10% SDS-PAGE gels followed by immunoblotting with the antibody against Rab5b. RhoGDI (Santa Cruz: sc-360) and Na^+/K^+ ATPase (Sigma: A276) were used as markers for soluble and membrane fractions, respectively."}, "RabGGTase": {"target": "RabGGTase (Rattus norvegicus, UniProt Q08602+Q08603)", "assay": "In vitro RabGGTase (GGTase-II) assay with REP-1", "conditions": "varying GGPP", "protocol": "as §1\nFor RabGGTase assays, the reaction contained the following components in 20 μl; 0.625 μl of [^3H]-GGPP (0.7 μM), 25 nM RabGGTase, 0.6 μM REP-1, 0.6 μM purified Rab7 or Ypt1 protein, 40 mM HEPES (pH 7.5), 150 mM NaCl, 5 mM DTT, 3 mM MgCl2 and 0.3% CHAPS. Reactions were carried out for 20 min at 37° C. and the products were analyzed as described above for the GGTase-I reaction. Graphing and Michaelis-Menten analysis were performed using Prism version5 (GraphPad, San Diego Calif.)."}, "[2]": {"test_system": "H-Ras farnesylation in NIH3T3 cells", "assay": "H-Ras mobility shift immunoblot in NIH3T3 cells", "conditions": "48 hours", "protocol": "K562 cells were treated with modified compounds for 72 hours and then cell number was counted. IC50 values of cell viability relative to the DMSO were measured. […] Data represent the mean+/−S.D. of two measurements from two independent experiments. *, P<0.05 compared with the value for DMSO. […] Whole cell lysates from cells treated with DMSO, P5-H6, P61-A6, GGTI (GGTI-298), FTI (BMS-225975) or RabGGTI (P49-F6) for 48 hours were prepared and processed for immunoblot analysis using antibody against unprenylated form of Rap1 (C: upper panel), Total-Rap1 (C: middle panel), H-Ras (D: upper panel), Rab5b (E: upper panel) or actin (C, D, and E: lower panel). The immunoblots shown represent two independent experiments for each treatment.\nThis was examined by using a farnesylated protein H-Ras."}, "[3]": {"test_system": "Rap1 geranylgeranylation in NIH3T3 cells", "assay": "Unprenylated Rap1 immunoblot in NIH3T3 cells", "conditions": "48 hours", "protocol": "The inhibition of GGTase-I catalyzed protein geranylgeranylation was assessed by examining the accumulation of unprenylated Rap1. To measure the level of unprenylated Rap1, cells were cultured in DMEM plus 10% (v/v) FBS overnight, and then DMSO or appropriate inhibitors were added. Incubation was continued for 48 hours. The cells were harvested and lysed in lysis buffer (20 mM Tris-HCl, pH 7.5, 150 mM NaCl, 1 mM EDTA, 1% NP-40 and 1× Protease Inhibitor Cocktail). Whole cell lysates of NIH3T3 cells were electrophoresed on a 12% SDS-PAGE, transferred to nitrocellulose membranes and immunoblotted with the antibody against unprenylated form of Rap1 (Santa Cruz Biotechnology catalog number sc-1482, goat), total-Rap1 (Santa Cruz: sc-65) or actin (Sigma: A4700). Actin was used as a loading control."}},
  "data": [
    {"compound": "CC(C)C[C@H](NC(=O)C1=CC[C@@H](c2cccc(Cl)c2)N(S(=O)(=O)c2ccc(Br)cc2)[C@H]1c1cccc(Br)c1)C(=O)O", "values": [
      {"measurement": "IC50", "setting": "GGTase-I", "result": 40, "unit": "nM"}
    ]},
    {"compound": "O=C(O)C1=CCC(c2ccc(Cl)cc2)N(S(=O)(=O)c2ccc(Cl)cc2)C1c1cccc(Cl)c1", "note": "(stereo not drawn)", "values": [
      {"measurement": "inhibition of FTase activity (FIG. 16)", "setting": "FTase", "result": "no inhibition of FTase activity"}
    ]},
    {"compound": "CCCCCCS[C@@H]1[C@H](C(=O)O)[C@@H](c2ccc(Br)cc2)N(S(=O)(=O)c2ccc(C)cc2)[C@H]1CCC", "note": "(relative stereo)", "values": [
      {"measurement": "intracellular localization of Rab5b (soluble vs membrane fraction)", "setting": "[1]", "result": "increase of Rab5b protein in the soluble fraction"},
      {"measurement": "mode of RabGGTase inhibition with respect to GGPP", "setting": "RabGGTase", "result": "uncompetitive inhibitors"},
      {"measurement": "mobility shift of H-Ras (protein farnesylation)", "setting": "[2]", "result": "did not cause mobility shift"},
      {"measurement": "appearance of the unprenylated (unprocessed) Rap1 band", "setting": "[3]", "result": "did not induce appearance of unprenylated Rap1"}
    ]}
  ]
}
